Test results from patent US20230357349A1, “GLUCAGON DELIVERY VIA ENZYMATIC ACTUATION” (University of Notre Dame du Lac, priority 2022, published 2023).

Details: buffer, pH 5

Substance: dasiglucagon
- duration payload remains stable (no degradation or amyloid formation): at least 7 days
